This test deals with WI-38 cells. The test is described as follows: In vitro cytotoxic activity, WI-38 cells (MTT). It is filed as cell-based, human. As to conditions: WI-38 versus MDA-MB-231. The method, then:
WI-38 cells ([…]), were obtained from American Type Culture Collection. The cells were propagated in DMEM supplemented with 10% heat-inactivated FBS (Hyclone), 10 μg/ml of insulin (Sigma), and 1% penicillin-streptomycin. All of the other chemicals and reagents were from Sigma, or Invitrogen. Cytotoxicity was determined using MTT assay following a reported procedure.

In the case of `N#CC1=C(c2ccccc2)Nc2c(c(-c3cccs3)nn2-c2ccccc2)C12C(=O)Nc1ccc(Cl)cc12` (stereo not shown) [Compound 6e, 5-Chloro-2-oxo-1',6'-diphenyl-3'-(thiophen-2-yl)-1',7'-dihydrospiro[indoline-3,4'-pyrazolo[3,4-b]pyridine]-5'-carbonitrile], the “Selectivity Index” value was 6.8.

The values are drawn from paper PMC6009943, “One-pot three-component synthesis of novel spirooxindoles with potential cytotoxic activity against triple-negative breast cancer MDA-MB-231 cells” (Journal of Enzyme Inhibition and Medicinal Chemistry, 2017).
